Target: CYP2C9 (Homo sapiens, UniProt P11712)
Experiment: Effect of DMSO on CYP activity in human liver microsomes
Type: in vitro ADME

The chains behind the UniProt entries cited, without tags or fusion partners.
UniProt P11712, whole entry: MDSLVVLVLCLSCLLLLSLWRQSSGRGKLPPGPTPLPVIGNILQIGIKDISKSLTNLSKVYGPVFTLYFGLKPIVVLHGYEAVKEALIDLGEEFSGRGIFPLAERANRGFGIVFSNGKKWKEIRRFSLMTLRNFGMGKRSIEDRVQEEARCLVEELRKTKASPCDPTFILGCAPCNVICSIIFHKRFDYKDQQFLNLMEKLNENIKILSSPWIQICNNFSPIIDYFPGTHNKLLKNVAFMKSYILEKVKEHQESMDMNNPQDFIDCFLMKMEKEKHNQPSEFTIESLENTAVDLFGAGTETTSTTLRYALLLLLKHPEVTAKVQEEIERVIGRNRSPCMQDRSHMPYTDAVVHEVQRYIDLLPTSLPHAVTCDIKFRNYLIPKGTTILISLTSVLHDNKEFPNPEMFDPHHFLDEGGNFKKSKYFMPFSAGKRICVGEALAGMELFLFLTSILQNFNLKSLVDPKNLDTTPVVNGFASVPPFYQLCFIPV

C[S+](C)[O-] [DMSO]
reduction of metabolite formation (0.1% DMSO): no significant reduction | CYP activity reduced by (0.5% DMSO, concentration set for the cocktail assay): 6% | effect of DMSO on CYP activity (DMSO up to 1%): not significantly affected
